One assay deals with Acetyl-CoA carboxylase 2 (Homo sapiens, UniProt O00763). As to the kind of experiment: Inhibition of N-terminal His-tagged human recombinant ACC2 expressed in high five insect cells by ATP consumption assay.
For a further assay, the target named is Acetyl-CoA carboxylase 1 (Rattus norvegicus, UniProt P11497). As to the kind of experiment: Inhibition of N-terminal His-tagged rat recombinant ACC1 expressed in high five insect cells by ATP consumption assay.

For the compound `CC(=O)NC(C)CCc1ccc(Oc2ccc(OC(C)C)cn2)cc1` (configuration not stated), on Acetyl-CoA carboxylase 2, the IC50 was 200 nM. As for `O=C(c1c2ccccc2cc2ccccc12)N1CCC(N2CCC[C@@H](C(=O)N3CCOCC3)C2)CC1`, the IC50 at Acetyl-CoA carboxylase 1 was 590 nM.

Usually IC50 stands for the concentration that gives 50% inhibition.

The values are drawn from ChEMBL document CHEMBL1629448, “Identification and synthesis of novel inhibitors of acetyl-CoA carboxylase with in vitro and in vivo efficacy on fat oxidation” (J Med Chem, 2010).
